This is an account of results in paper PMC8145572 (Viruses, 2021).

Series [1] concerns Dengue virus serotype 2 (DENV2), strain New Guinea C. The series can be described thus: Antiviral evaluation. The format is cell-based. The settings on record: HFF-1 cells, 100 IU/mL.
The conditions of series [2]: clinical IFN regimens; cited from earlier work.

For interferon-alpha [IFN], the “decrease in viral burden relative to the no treatment control” value in series [1] is on record as 1.6 log10 PFU/mL. The “average drug concentration at steady state” value in series [2] is “approximately 200 IU/mL”.
